One compound from publication PMC3169429 (ACS chemical biology, 2010) can be followed below.

The structures appear in SMILES notation.

One experiment deals with T1, gp44/62 (Enterobacteria phage T4, UniProt P04526).
T1 sequence (P04526 1-319): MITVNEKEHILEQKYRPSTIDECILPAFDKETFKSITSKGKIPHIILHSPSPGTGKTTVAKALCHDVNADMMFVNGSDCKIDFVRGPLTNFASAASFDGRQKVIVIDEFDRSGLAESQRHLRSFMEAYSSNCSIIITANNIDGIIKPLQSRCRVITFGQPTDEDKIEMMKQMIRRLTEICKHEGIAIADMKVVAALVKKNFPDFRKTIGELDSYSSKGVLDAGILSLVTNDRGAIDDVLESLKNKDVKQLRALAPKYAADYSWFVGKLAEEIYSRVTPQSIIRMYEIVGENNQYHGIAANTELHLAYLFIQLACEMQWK
T1 sequence (P04527 1-187 partner): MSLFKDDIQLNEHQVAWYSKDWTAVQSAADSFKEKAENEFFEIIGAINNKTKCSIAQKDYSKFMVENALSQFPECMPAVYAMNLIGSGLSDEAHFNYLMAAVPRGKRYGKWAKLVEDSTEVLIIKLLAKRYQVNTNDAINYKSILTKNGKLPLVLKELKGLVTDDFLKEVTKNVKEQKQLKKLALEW
As to the kind of experiment: Hydrolysis of nucleotide substrates by gp44/62. It counts as biochemical, bacteriophage T4. As to conditions: nucleotide substrates at 500 µM. In short, it runs like this:
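Wild-type T4 gp44/62 purified from an overproducing strain. Each ribo- or deoxy-nucleotide was supplied as substrate. Hydrolysis was read as Pi release by malachite green.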

Another experiment concerns the target R175K mutant of gp44/62 (Enterobacteria phage T4, UniProt P04526, R175K). The experiment is described as follows: ATPase inhibition assay, gp44/62 R175K mutant. The experiment is classed as biochemical, bacteriophage T4. The conditions noted are these: arginine replaced with lysine.
For experiment [1], the target named is T2, bacteriophage T4 clamp loader, gp44/62 (Enterobacteria phage T4, UniProt P04526).
T2 sequence (P04526 1-319): T1 sequence (P04526 1-319)
T2 sequence (P04527 1-187 partner): T1 sequence (P04527 1-187 partner)
As to the kind of experiment: ATPase inhibition assay, wild-type gp44/62. The experiment is classed as biochemical.

For `O=[N+]([O-])c1ccc2c(ccn2[C@H]2C[C@H](O)[C@@H](COP(=O)(O)OP(=O)(O)OP(=O)(O)O)O2)c1` [d5-NITP, 5-nitro-indolyl-2’-deoxyriboside triphosphate], at gp44/62, the “Hydrolysis by gp44/62” value is listed as “not hydrolyzed by gp44/62”. Further, at R175K mutant of gp44/62, the “Fold decrease of binding affinity, R175K versus wild-type” value is ~ 3 fold. The compound further yielded a Sensitivity factor in experiment [1] ([(Km/Ki)pathogen]/[(Km/Ki)host], against gp44/62) of 20. The Hill coefficient in experiment [1] (dose-dependent inhibition of gp44/62 ATPase activity) is reported as ~ 1. Besides, the Mode of inhibition result in experiment [1] (double reciprocal plot versus ATP) is “reversible, competitive inhibition”. In experiment [1] (gp44/62), the “Fold lower Ki than AMP-PNP” value was ~ 300 fold and the “Fold lower Ki than ATPγS” value is on record as ~ 5 fold.
